Values quoted from earlier work in patent publication US20120070472A1, “CHRONOTHERAPEUTIC COMPOSITIONS AND METHODS OF THEIR USE” (Circ Pharma Research & Development Limited, priority 2004, published 2012).

Details: in vivo

- Elimination Half-Life: 1.8 h
Substance: Methyldopa
